Laboratory results as given in US20120322768A1, “COMPOUNDS, COMPOSITIONS AND METHODS FOR TREATING PROTOZOAN INFECTIONS” (QUEEN MARY & WESTFIELD COLLEGE, priority 2009, published 2012).

Tests used:
Vero cells = experiment: Mammalian cell cytotoxicity, Vero cells (Alamar blue); format: cell-based; details: read-out: IC50 Vero cells; Table 6
THP-1 cells = experiment: Mammalian cell cytotoxicity, THP-1 (Alamar blue); details: read-out: IC50 THP1; 6 days

## 3-Fluoro-4-nitrobenzyl phosphoramide mustard
Vero cells
  IC50: > 100 µM
THP-1 cells
  IC50: 17.6 µM
